# Measurements published in doi:10.1101/2021.07.22.453419.
# Target: Papain (E.C.3.4.22.2, from papaya latex) (papaya) (UniProt P00784)
# Conditions: domain or fragment
substance,measurement,value
potato multicystatin domain StCYS5,Ki,6 nM
